Reference: ChEMBL document CHEMBL1133086, “Design, synthesis, and X-ray crystal structure of a potent dual inhibitor of thymidylate synthase and dihydrofolate reductase as an antitumor agent” (J Med Chem, 2000)

The chains behind the UniProt entries cited, without tags or fusion partners.
UniProt C3SWJ7, whole entry: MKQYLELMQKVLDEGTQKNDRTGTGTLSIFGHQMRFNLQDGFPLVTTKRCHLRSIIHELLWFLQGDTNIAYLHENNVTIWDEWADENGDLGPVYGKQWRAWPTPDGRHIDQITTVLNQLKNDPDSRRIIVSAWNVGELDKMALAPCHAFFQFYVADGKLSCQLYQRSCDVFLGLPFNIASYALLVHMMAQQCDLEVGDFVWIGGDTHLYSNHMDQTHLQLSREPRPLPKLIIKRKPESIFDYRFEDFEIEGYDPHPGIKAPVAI
UniProt P00381, whole entry: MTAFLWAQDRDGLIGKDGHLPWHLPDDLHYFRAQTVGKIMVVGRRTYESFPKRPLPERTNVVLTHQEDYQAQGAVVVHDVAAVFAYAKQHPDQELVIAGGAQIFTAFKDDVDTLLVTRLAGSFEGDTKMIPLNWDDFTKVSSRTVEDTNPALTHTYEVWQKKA

Legend:
[1] = target: Thymidylate synthase (Escherichia coli, UniProt C3SWJ7); experiment: Inhibitory concentration against isolated Escherichia coli Thymidylate synthase
[2] = target: Dihydrofolate reductase (Lactobacillus casei, UniProt P00381); experiment: Inhibitory concentration against isolated Lactobacillus casei Dihydrofolate reductase; set-up: species or system Lacticaseibacillus casei
[3] = target: T1, Bifunctional dihydrofolate reductase-thymidylate synthase (Toxoplasma gondii, UniProt Q07422)
T1 sequence (Q07422 whole entry): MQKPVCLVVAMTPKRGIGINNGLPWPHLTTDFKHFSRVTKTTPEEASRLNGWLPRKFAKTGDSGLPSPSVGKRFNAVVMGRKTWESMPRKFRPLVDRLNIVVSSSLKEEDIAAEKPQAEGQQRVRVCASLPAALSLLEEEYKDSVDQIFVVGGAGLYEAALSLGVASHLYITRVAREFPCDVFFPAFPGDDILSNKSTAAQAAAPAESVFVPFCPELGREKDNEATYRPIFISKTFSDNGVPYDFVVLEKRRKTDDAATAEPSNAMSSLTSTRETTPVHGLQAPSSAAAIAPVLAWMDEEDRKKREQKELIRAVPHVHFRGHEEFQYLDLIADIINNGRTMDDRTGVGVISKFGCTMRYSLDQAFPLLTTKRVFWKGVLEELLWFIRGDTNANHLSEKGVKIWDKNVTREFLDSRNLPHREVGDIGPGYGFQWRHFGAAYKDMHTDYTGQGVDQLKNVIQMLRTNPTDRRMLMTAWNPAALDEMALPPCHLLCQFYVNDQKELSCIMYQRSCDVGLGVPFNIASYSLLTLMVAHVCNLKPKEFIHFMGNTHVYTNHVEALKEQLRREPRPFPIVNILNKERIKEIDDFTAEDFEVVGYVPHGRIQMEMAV

`Cc1nc2ccc(CN(C)c3ccc(C(=O)N[C@@H](CCC(=O)O)C(=O)O)s3)cc2c(=O)[nH]1` [RALTITREXED] was tested. Which IC50 [1] did it give?
The IC50 was 10 µM.

What does the source list for `Nc1nc2[nH]cc(CCc3ccc(C(=O)N[C@@H](CCC(=O)O)C(=O)O)cc3)c2c(=O)[nH]1` [PEMETREXED]?
IC50 [2]: 2.3 µM; IC50 [1]: 110 µM; IC50 [3]: 1.4 µM
